The text below walks through data of ChEMBL document CHEMBL1133691 (J Med Chem, 2000).

The target of this test is T1, Dihydrofolate reductase (Homo sapiens, UniProt P00374).
T1 sequence (P00374 whole entry): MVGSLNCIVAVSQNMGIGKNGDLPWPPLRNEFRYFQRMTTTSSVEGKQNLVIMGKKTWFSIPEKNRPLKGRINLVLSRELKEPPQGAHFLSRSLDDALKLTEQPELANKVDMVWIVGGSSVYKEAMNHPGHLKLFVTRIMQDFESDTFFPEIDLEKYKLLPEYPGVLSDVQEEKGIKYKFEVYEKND
Description: Ability to inhibit recombinant human dihydrofolate reductase.

Broadly, the IC50 is the point on the concentration scale where inhibition reaches its midpoint.

Each structure is given as a SMILES string.

For `Nc1nc(N)c2nc(COC(=O)c3ccc(C(=O)N[C@@H](CCC(=O)O)C(=O)O)cc3)cnc2n1`, the IC50 was determined as 3.1 µM.
